Test results as given in ChEMBL document CHEMBL3885861, “Open TG-GATES”.

Species on record: Rattus norvegicus
Assay: Open TG-GATES - Regimen: Single
Format: toxicity, organism-based, Sprague-Dawley
Parameters: regimen Single, gender Male, age 6 weeks
Details: in vivo, po, route gavage; for PT: tissue Blood; for BUN / Ca / Cl: tissue Plasma; for LIVER: tissue Liver
[1] = 0 mg/kg, 3 h, dose level Control
[2] = 0 mg/kg, 6 h, dose level Control
[3] = 0 mg/kg, 9 h, dose level Control
[4] = 0 mg/kg, 24 h, dose level Control
[5] = 100 mg/kg, 24 h, dose level Low
[6] = 300 mg/kg, 3 h, dose level Middle
[7] = 300 mg/kg, 6 h, dose level Middle
[8] = 300 mg/kg, 9 h, dose level Middle

SMILES: CN(C)CCC=C1c2ccccc2COc2ccccc21 [DOXEPIN]
- PT [1]: 13.9 s
- BUN [1]: 10.6 mg/dL
- Ca [1]: 10.8 mg/dL
- Cl [1]: 104.8 meq/L
- PT [2]: 13.7 s
- BUN [2]: 8 mg/dL
- Ca [2]: 10.6 mg/dL
- Cl [2]: 106 meq/L
- PT [3]: 14.2 s
- BUN [3]: 8.4 mg/dL
- Ca [3]: 10.4 mg/dL
- Cl [3]: 105.8 meq/L
- PT [4]: 13.6 s
- LIVER [4]: 9.8 g
- BUN [4]: 17 mg/dL
- Ca [4]: 11 mg/dL
- PT (100 mg/kg, 3 h, dose level Low): 13.9 s
- BUN (100 mg/kg, 3 h, dose level Low): 9 mg/dL
- Ca (100 mg/kg, 3 h, dose level Low): 10.9 mg/dL
- Cl (100 mg/kg, 3 h, dose level Low): 106.8 meq/L
- PT (100 mg/kg, 6 h, dose level Low): 14.1 s
- BUN (100 mg/kg, 6 h, dose level Low): 7.4 mg/dL
- Ca (100 mg/kg, 6 h, dose level Low): 10.6 mg/dL
- Cl (100 mg/kg, 6 h, dose level Low): 107.4 meq/L
- PT (100 mg/kg, 9 h, dose level Low): 14 s
- BUN (100 mg/kg, 9 h, dose level Low): 6.8 mg/dL
- Ca (100 mg/kg, 9 h, dose level Low): 10.4 mg/dL
- Cl (100 mg/kg, 9 h, dose level Low): 107.4 meq/L
- PT [5]: 14 s
- LIVER [5]: 9.3 g
- BUN [5]: 17 mg/dL
- Ca [5]: 10.8 mg/dL
- Cl [5]: 105.4 meq/L
- PT [6]: 14.1 s
- BUN [6]: 11.4 mg/dL
- Ca [6]: 10.8 mg/dL
- Cl [6]: 106.2 meq/L
- PT [7]: 14 s
- BUN [7]: 7.8 mg/dL
- Cl [7]: 108 meq/L
- PT [8]: 14.2 s
- BUN [8]: 8 mg/dL
- Ca [8]: 10.3 mg/dL
- Cl [8]: 107.4 meq/L
- Cl (300 mg/kg, 24 h, dose level Middle): 106.2 meq/L
